Assay results from US20200369728A1, “PEPTIDOMIMETIC MACROCYCLES AND USES THEREOF” (Aileron Therapeutics, Inc., priority 2015, published 2020).

Target: MDM2
Test: Direct binding assay MDM2 with fluorescence polarization (FP)
Details: FAM labeled linear peptide 10 nM in well
Experimental: Dilute MDM2 (In-house, 41 kD) into FP buffer (High salt buffer-200 mM Nacl, 5 mM CHAPS, pH 7.5) to make 10 μM working stock solution. • 2. Add 30 μl of 10 μM of protein stock solution into A1 and B1 well of 96-well black HE microplate (Molecular Devices). • 3. Fill in 30 μl of FP buffer into column A2 to A12, B2 to B12, C1 to C12, and D1 to D12. • 4. 2 or 3 fold series dilution of protein stock from A1, B1 into A2, B2; A2, B2 to A3, B3; . . . to reach the single digit nM concentration at the last dilution point. • 5. Dilute 1 mM (in 100% DMSO) of FAM labeled linear peptide with DMSO to 100 μM (dilution 1:10). Then, dilute from 100 μM to 10 μM with water (dilution 1:10) and then dilute with FP buffer from 10 μM to 40 nM (dilution 1:250). This is the working solution which will be a 10 nM concentration in well (dilution 1:4). Keep the diluted FAM labeled peptide in the dark until use. • 6. Add 10 μl of 10 nM of FAM labeled peptide into each well and incubate, and read at different time points.

`CC(C)C[C@H](NC(=O)CCNC(=O)c1ccc2c(c1)C(=O)OC21c2ccc(O)cc2Oc2cc(O)ccc21)C(=O)N[C@H](C(=O)N[C@@H](Cc1ccccc1)C(=O)N[C@@H](CCC(=O)O)C(=O)N[C@@H](Cc1c[nH]cn1)C(=O)N[C@@H](Cc1ccc(O)cc1)C(=O)N[C@@H](Cc1c[nH]c2ccccc12)C(=O)N[C@@H](C)C(=O)N[C@@H](CCC(N)=O)C(=O)N[C@@H](CC(C)C)C(=O)N[C@H](C(=O)N[C@@H](CO)C(N)=O)[C@@H](C)O)[C@@H](C)O` showed a Kd of 13.4 nM.
